## Antibody variant affinities, Ab-14 light chain, assay B

The target is the same throughout: PDVDLGDISGINAS, from the HR2 region of SARS-CoV-2 spike.

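These sequences belong to a second round, designed from the earlier measurements on random variants of the parent. Their group label is 14L_En_HC (En: ensemble of fine-tuned language models; HC: hill climbing; a sequence that several methods proposed may carry one label only). In AlphaSeq, yeast of one mating type display the scFv and yeast of the other type display the target. The frequency of each diploid, read from paired DNA barcodes, reflects how well the two displayed proteins bind. The ratio of observed to expected reads was calibrated, replicate by replicate, on BCL2-family standards whose Kd was known from biolayer interferometry. The assay was run in six technical replicates.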

Ab-14 is the parent antibody, in scFv form: VH, then three GGGGS repeats, then VL. The heavy chain is unchanged in all variants.
VH: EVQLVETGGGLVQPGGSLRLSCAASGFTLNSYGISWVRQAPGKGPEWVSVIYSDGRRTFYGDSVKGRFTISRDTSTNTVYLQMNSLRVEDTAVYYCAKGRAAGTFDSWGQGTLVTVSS
VL: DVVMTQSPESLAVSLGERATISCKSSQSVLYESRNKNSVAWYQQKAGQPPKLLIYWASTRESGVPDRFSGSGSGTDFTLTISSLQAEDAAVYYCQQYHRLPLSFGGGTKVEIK

The parent's light chain CDRs are KSSQSVLYESRNKNSVA, WASTRES, QQYHRLPLS; each variant's own CDRs replace them letter for letter. Values are log10 of the apparent Kd in nM; lower means stronger binding. A mean of the replicates is given; it leaves out those without a signal. A pair that was not seen in that replicate is written "ND"; this usually means weak binding, but a binder can also be missed.

| CDR-L1 | CDR-L2 | CDR-L3 | replicates, log10 nM | mean, log10 nM | empty controls |
|---|---|---|---|---|---|
| MISDLTMYGSRNVNSVA | DLSERGS | QQYHRLPLS | 0.63 0.33 0.13 0.08 0.23 0.51 | 0.32 | 3 of 18 (3.02) |
| SLMQVAGYESNAHNSIA | DLRTRES | QQYHRLPLS | 1.58 1.48 1.69 1.59 2.48 2.91 | 1.95 | 0 of 18 |
| KIGSATNGEKFQSNSVA | QTSTREE | QQYHRLPLS | ND ND -0.36 0.67 0.83 0.32 | 0.36 | 0 of 18 |
| KISQMSNIESITHNSVA | QTSTRES | QQYDRLPLS | 1.23 1.68 0.78 1.00 0.55 0.55 | 0.97 | 0 of 18 |
| KLSATYRYESQNKNSIA | EMTTREQ | QCYHRLPLS | -0.13 -0.29 -0.48 0.07 -0.35 0.20 | -0.16 | 0 of 18 |
| KISFQYRYEQLSKNSIA | EAQTRLK | QQYHRLPIS | 1.77 0.79 2.15 1.14 1.40 2.31 | 1.59 | 1 of 18 (2.67) |
| KISFQYRYEQLMKNSIA | EVQTRLK | QQYHRLPLS | ND 1.33 1.72 1.70 1.33 0.92 | 1.40 | 1 of 18 (1.76) |
| TISTSMRYESSLKNAIA | NAETRES | QQYHRLPIS | 1.16 0.58 0.32 0.35 0.75 0.69 | 0.64 | 1 of 18 (2.97) |
| HLSDTVMQGSLYRNSVA | QESTRAD | QQYHRLPLS | 0.05 0.11 -0.12 -0.18 -0.15 0.05 | -0.04 | 5 of 18 (2.88) |
| TISQSMLMTGLNRNSVA | QAEERIE | QQYHRLPLS | 1.47 ND 0.95 ND 2.87 2.02 | 1.83 | 0 of 18 |
| TISGLILMPSRNKNSVA | NTSTRYQ | QQYHRLPLS | 0.64 0.41 0.48 0.71 0.35 0.68 | 0.54 | 0 of 18 |
| MFSQGVMVGWLARNSVA | NSSTRES | QQYHRLPLS | 0.66 0.37 0.25 0.37 0.72 0.86 | 0.54 | 1 of 18 (2.30) |
| HISYSMAHMSKNKNSVA | NQQTRES | QQYHRLPLS | 1.45 0.62 0.83 0.98 ND 1.14 | 1.00 | 1 of 18 (1.43) |
| MFSQLTYMGSRARNAVA | QAETRVN | QQYHHLPLF | 0.98 1.10 1.52 1.07 0.93 1.30 | 1.15 | 1 of 18 (2.07) |
| KIGQQVTYESTNKNAIA | QMTTRES | QQYHHLPLS | 0.95 1.13 0.95 1.44 0.56 1.74 | 1.13 | 0 of 18 |
| TVSQVHEMLTRNKNSVA | DMNTRES | QQYDRLPLS | ND ND ND ND ND ND | ND | 0 of 18 |
| KISQNMGETQRNKNSVA | EVSTVPS | QQYWRLPLS | 1.24 1.85 1.07 1.80 1.76 1.03 | 1.46 | 2 of 18 (3.10) |
| KLGMTVGYEQRNKSRVA | DNNTRES | QQYDRLPLS | 3.02 ND ND ND ND ND | 3.02 | 1 of 18 (2.66) |
| KISGLYQKESKNKNSVA | EMVNRES | QQYDRLPLS | 0.73 1.03 0.70 0.48 0.78 1.24 | 0.83 | 0 of 18 |
| KVSQSVLMLQRNKNSVA | DNSTSGS | QQYHRLPLS | 3.42 2.45 2.83 ND 1.98 ND | 2.67 | 0 of 18 |
| IISDSVLTLSRNKNSVA | DNSTRES | QQYDRLPLS | 1.53 ND ND 0.85 1.02 ND | 1.13 | 0 of 18 |
| KVSQNVLMMSRNKNSVA | DNSTSGS | QQYHRLPLS | 0.22 0.67 0.20 -0.10 0.69 0.33 | 0.34 | 0 of 18 |
| KISYMGEHFSTNHSAIA | QASTREL | QQYHRLPIS | 0.83 1.49 0.98 1.12 0.62 2.08 | 1.19 | 0 of 18 |
| KLRMSTGYQSRNKDSIA | DNSTRGR | QQYHRLPLS | 2.39 3.52 ND 2.39 1.93 3.22 | 2.69 | 1 of 18 (2.25) |
| SIYDVTGMESRNKNPIA | DVSTRPS | QQYDRLPLS | ND ND ND ND ND 2.18 | 2.18 | 1 of 18 (2.39) |
| TIGAATLEESRNKNSVA | EMSMREN | QSYNRLPLS | 0.85 1.05 0.86 0.99 0.83 1.07 | 0.94 | 0 of 18 |
| ILYDSVGTLSHNKNSVA | DNSTRES | QQYDRLPLS | 3.21 1.79 2.59 3.42 1.49 4.40 | 2.82 | 1 of 18 (2.74) |
| TIGQSTLMESENRNNVA | QMSTREK | QQYDRLPLS | 1.11 0.97 1.34 1.00 1.31 1.25 | 1.16 | 0 of 18 |
| KFSQMVLTGAYVSNSVA | QMSTRVN | QQYHRLPLS | 0.80 0.89 0.61 0.66 0.72 1.00 | 0.78 | 1 of 18 (1.99) |
| KISMLYRYESQNKNSIA | EMSRREN | QQYHRLPLS | 0.22 0.34 0.05 -0.01 -0.03 0.37 | 0.16 | 0 of 18 |
| TISQSAHMESHNKDNVA | DLNLRGS | QQYDRLPLS | 0.75 1.11 3.38 1.21 1.23 1.33 | 1.50 | 0 of 18 |
| SIYDATGMESRNKNPIA | DVSTRPE | QQYHRLPLS | 0.21 0.15 0.22 0.07 -0.07 0.03 | 0.10 | 2 of 18 (2.95) |
| KLAQSVAMTSHHINSVA | QSTTREE | QQYNRLPLS | -0.25 -0.09 -0.38 0.07 -0.37 -0.20 | -0.20 | 0 of 18 |

4 of these entries, quoted again:

CDR-L1,CDR-L2,CDR-L3,"replicates, log10 nM","mean, log10 nM",empty controls
MISDLTMYGSRNVNSVA,DLSERGS,QQYHRLPLS,0.63 0.33 0.13 0.08 0.23 0.51,0.32,3 of 18 (3.02)
KLGMTVGYEQRNKSRVA,DNNTRES,QQYDRLPLS,3.02 ND ND ND ND ND,3.02,1 of 18 (2.66)
KISGLYQKESKNKNSVA,EMVNRES,QQYDRLPLS,0.73 1.03 0.70 0.48 0.78 1.24,0.83,0 of 18
KVSQSVLMLQRNKNSVA,DNSTSGS,QQYHRLPLS,3.42 2.45 2.83 ND 1.98 ND,2.67,0 of 18

A sequence measured in both rounds can read differently, since the two assays cover different ranges. Of ten entries with the parent sequence, four were seen in most replicates (averages 0.34 to 2.37), three in one and three in none, so single entries are noisy. Three control strains display no target. For all light chain designs, 4% of the pairings with them gave a signal, with a median of 2.64 and one signal in twenty below 1.59, so weak values seen in few replicates may be background. For each scFv, signals with the empty controls are counted beside the result, with their mean in brackets. The authors' rule: three or more of the six replicates give a measured affinity, fewer mean a poor binder.

Data: MIT Lincoln Laboratory AlphaSeq set, Li et al. 2023, doi:10.1038/s41467-023-39022-2, as distributed in FLAb.